Sfp PPTase inh – inhibitors of Bacillus subtilis Sfp phosphopantetheinyl transferase; Q9F4F7; AID 1490; 310,000 compounds, 3.5% hits; Biochemical Sfp PPTase activity, qHTS; Potency, µM, actives largely listed as inhibitors;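 further: the enzyme is Sfp with the accession as filed and its product quenches rhodamine fluorescence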
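With Hepes-Na pH 7.6 buffer containing 10 mM MgCl2, Sfp (15 nM) modified BHQ-2-YbbR (12.5 uM) using rhodamine-CoA (5 uM). Two reads 30 minutes apart at 525/598 nm yielded each well's rate.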
miR-21 reporter – raises the signal of a miR-21 reporter | HeLa miR-21 FLuc reporter, luciferase, 48 h | Potency, µM (highest dose often 38.3 µM) | 340,000 tested, under 10 active | AID 2288; active = well fitted rising curve with a large enough effect; inconclusive = small, poorly fitted or top-dose-only effect; inactive = no such curve, though single readings can be large or run the other way;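 note: miR-21 action dims this reporter so a rising signal means less miR-21 action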
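Compounds were titrated across several concentrations (up to approximately 40 uM) and incubated 48 hours with HeLa miR-21-FLuc reporter cells (miR-21 target sequence downstream of FLuc, endogenous miR-21). Readout was firefly luciferase luminescence after lytic detection reagent.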
Lamin A splicing – modulators of lamin A splicing | HeLa LMNA splicing GFP/RFP minigene ratio, 48 h | AID 1487 | 200,000 compounds, 0.01% hits | Potency, µM (series often up to 46.1 µM), hits mostly inhibitors; active means well fitted inhibition curve with a large enough effect in the signal ratio, with a control signal flat, not every such curve was filed as active; inconclusive means small, poorly fitted or top-dose-only effect, or effect the other way, or a change in a side signal; the % refers to the signal ratio
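S3 HeLa stable clones carrying a lamin A-EGFP splicing minigene plus DsRed2 were seeded at 600 cells/well in Opti-MEM with 2% FBS, pin-dosed and incubated 48 h at 37°C. Acumen cytometry (488 nm) gave the GFP/RFP total-intensity ratio.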
G9a block – blocks human histone lysine methyltransferase G9a; Q96KQ7; 350,000 compounds, 8.8% hits; G9a H3K9 monomethylation, AlphaScreen, 2 h; Potency, µM (doses to about 102 µM), hits mostly inhibitors; further: nearly all actives have a fitted effect of over 75% in size
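Enzyme 20 nM + cpd, 15 min RT; add b-H3K9 pep 500 nM / SAM 20 uM; 2 h RT; anti-H3K9me1 Ab 0.5 ug/mL + SA donor / anti-rabbit acceptor beads 20 ug/mL each, 10 min; AlphaScreen read.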
ALDH1A1 inh – inhibitors of human aldehyde dehydrogenase 1A1 | P00352 | Purified ALDH1A1, NADH fluorescence, propionaldehyde substrate | Potency, µM (series often up to 75.3 µM), actives largely listed as inhibitors | 220,000 compounds, 7.3% hits; active means well fitted inhibition curve with a large enough effect, not every such curve was filed as active; inconclusive means small, poorly fitted or top-dose-only effect, or another doubt; inactive means no such curve, though single readings can be large or run the other way
KDM4E inh – inhibitors of human JMJD2E histone demethylase; JMJD2E catalytic domain, FDH-coupled NADH fluorescence (FDH is formaldehyde dehydrogenase); Potency, µM (doses to about 57.1 µM), most hits filed as inhibitors; 230,000 compounds, 1.6% hits; AID 2147; active means well fitted inhibition curve with a large enough effect, not every such curve was filed as active; inconclusive means small, poorly fitted or top-dose-only effect, or another doubt; inactive means no such curve, though single readings can be large or run the other way; further: nearly all actives have a fitted effect of over 50% in size
Hits are given with their value; – = inactive; ? = inconclusive; · = no result; [ ] = remark or other dose. Most compounds without a hit are left out; they make up all but 13% or so of the library. Unless noted, the call rests on the fitted dose curve; in most records, active means well fitted curve in the direction sought with a large enough effect; inconclusive means small, poorly fitted or top-dose-only effect, or another doubt; inactive means no such curve, though single readings can be large; an effect the other way counts as inactive or inconclusive.

SMILES	Sfp PPTase inh	miR-21 reporter	Lamin A splicing	G9a block	ALDH1A1 inh	KDM4E inh
CC(=O)N1c2ccc(S(=O)(=O)N3CCCC3)cc2CC1C(=O)NC(C)C (stereo not drawn)	–	–	·	–	·	·
COc1cc2c(cc1OC)CN(c1ccc3ccccc3n1)CC2	56µM	–	·	?	·	·
COc1cc2c(cc1OC)CN(c1ccc(-c3ccccc3OC)nn1)CC2	–	–	?	–[12.7 µM]	–	–
CCOC(=O)c1ccc(N2C(=O)C(CC(N)=O)N(CCc3ccc(OC)c(OC)c3)C2=S)cc1 (stereo not drawn)	?	–	?	–	–	?
CCC(=O)N1CCc2cc(Br)cc(S(=O)(=O)N3CCN(c4ccc(C)cc4)C(C)C3)c21 (stereo not drawn)	·	–	·	–	·	·
COc1ccc(-c2ncccc2OC(=O)C23CC4CC(CC(C4)C2)C3)cc1OC	–	–	–	45µM	?	?
OC(COc1ccc(CNCCc2ccccc2F)cc1)CN1CCCCC1 (stereo not drawn)	–	–	·	·	–	–
COc1cc(C2C(C#N)=C(N)OC3=C2C(=O)CC(C)(C)C3)ccc1OCCN1CCOCC1 (stereo not drawn)	–	–	·	50µM	·	–
CCC(=O)Nc1ccc(NC(=O)c2cc3ccccc3o2)c(OC)c1	–	–	·	·	·	·
COCCCn1c(=O)/c(=C\c2ccccc2OC(F)F)s/c1=C(/C#N)C(=O)NCCOC	–	–	·	–[12.7 µM]	·	–
COCCCn1c(=O)/c(=C\c2ccccc2OC(F)F)s/c1=C(/C#N)C(=O)N1CCOCC1	–	–	–	–	6.3µM	–
CC(=O)Nc1ccc(NC(=O)CCc2nc3sc4c(c3c(=O)[nH]2)CCCC4)cc1	·	·	·	–[0.501 µM]	·	·
CN(CC(=O)Nc1ccc(Cl)cc1)C(=O)CCc1nc2sc3c(c2c(=O)[nH]1)CCCC3	·	·	·	50µM	·	·
CN(CC(=O)Nc1ccc(F)cc1)C(=O)CCc1nc2sc3c(c2c(=O)[nH]1)CCCC3	·	·	·	56µM	·	·
CC1(NC(=O)CCc2nc3sc4c(c3c(=O)[nH]2)CCCC4)CCS(=O)(=O)C1 (stereo not drawn)	·	·	·	50µM	·	·
Clc1ccc(CCNc2ncnc3c2c(-c2ccccc2)cn3-c2ccccc2)cc1	·	–	?	–	·	·
COc1ccc(-c2coc3ccc(OC4OC(COC(C)=O)C(OC(C)=O)C(OC(C)=O)C4OC(C)=O)c(OC(C)=O)c3c2=O)cc1 (stereo not drawn)	–	·	·	·	–	–
O=C1C(=O)N(CCCN2CCOCC2)C(c2ccc([N+](=O)[O-])cc2)/C1=C(/O)c1ccc2c(c1)OCO2 (stereo not drawn)	–	–	·	50µM	·	·
C=CCOc1ccc(C2/C(=C(\O)c3ccc4c(c3)OCCO4)C(=O)C(=O)N2CCCN2CCOCC2)cc1 (stereo not drawn)	–	–	·	50µM	·	·
COC(=O)c1ccc(C2/C(=C(\O)c3ccc4c(c3)OCCO4)C(=O)C(=O)N2CCCN2CCOCC2)cc1 (stereo not drawn)	–	–	·	?	·	·
CC1Cc2cc(/C(O)=C3/C(=O)C(=O)N(CCCN4CCOCC4)C3c3ccc(C(C)C)cc3)ccc2O1 (stereo not drawn)	–	–	·	–[0.0925 µM]	·	·
COc1ccc(Cl)cc1NCc1nnc2n1CCCCC2	·	–	?	–	·	·
CC1=CC(C)(C)NC(=S)N1c1cccc2cc(S(=O)(=O)O)ccc12	20µM	–	·	25µM	28µM	?
CCOc1ccc(C2C(C#N)=C(N)SC(N)=C2C#N)cc1OC	50µM	–	–	8.9µM	?	?
CCOc1ccc(C2C(C#N)=C(N)SC(N)=C2C#N)cc1OCC	?	–	–	?	?	–
SMILES	Sfp PPTase inh	miR-21 reporter	Lamin A splicing	G9a block	ALDH1A1 inh	KDM4E inh
CCOc1ccccc1C1C(C#N)=C(N)SC(N)=C1C#N	45µM	–	?	?	–	–
CCN(C(=O)c1cc2c(s1)-c1c(C)cccc1OC2)c1ccccc1F	·	–	·	–	·	·
O=C1C=CC(=O)N1	·	·	·	2µM	·	·
O=c1[nH]c(-c2ccccc2Cl)nc2c1sc(=S)n2-c1ccccc1	–	–	–	–	?	–
O=c1[nH]cnc2c1sc(=S)n2-c1ccccc1	18µM	–	–	2.2µM	10µM	–
O=c1[nH]c(-c2ccc(F)cc2)nc2c1sc(=S)n2-c1ccccc1	–	–	?	40µM	?	–
CS(=O)(=O)c1cccc(C(=O)N(CCc2ccccc2)Cc2cccs2)c1	–	–	·	79µM	·	·
COC(=O)c1sc(SC)c(S(=O)(=O)C(C)C)c1N/N=C(\C#N)C(=O)c1ccccc1	–	–	·	45µM	–	–
O=C(c1cccc(Cl)c1)n1nc(-c2ccco2)nc1NCc1cccs1	·	–	·	–	·	·
CCC(Sc1ncccc1C(=O)O)C(=O)N1CCOCC1 (stereo not drawn)	50µM	–	?	?	–	–
CCOC(=O)c1cccnc1SC(CC)C(=O)N1CCOCC1 (stereo not drawn)	–	–	–	–	–	–
CCC(Sc1ncccc1C(=O)O)C(=O)N1CCCC1 (stereo not drawn)	11µM	–	–	?	–	–
CCOC(=O)CC(NC(=O)c1cc2cc(OC)ccc2oc1=O)c1ccc(OC)cc1 (stereo not drawn)	·	–	·	–	·	·
Cc1ccc(N=Cc2sc(O)c3ccccc23)cc1	32µM	–	–	8.9µM	?	–
Cc1ccc(F)c(N=Cc2c(O)c3ccccc3oc2=O)c1	–	–	·	–[0.501 µM]	·	·
Cc1ccc(N=Cc2sc(O)c3ccccc23)c(C)c1	22µM	–	–	8.9µM	13µM	?
CC(C)CCN=Cc1c(O)n(-c2ccccc2)c(=O)c2ccccc12	56µM	–	–	–	–	?
Cc1ccc(Cl)cc1NC(=O)Cn1nnc2sc3c(c2c1=O)CCC(C(C)(C)C)C3 (stereo not drawn)	·	–	·	–	·	·
N=C1N(/N=C/c2ccccc2)C(=Nc2ccccc2)C(=S)N1c1ccccc1	32µM	–	–	10µM	?	–
Nc1nc(-c2ccccc2)c(N=Nc2cccnc2)s1	–	–	–	40µM	20µM	–
Cc1nn(-c2ccccc2)c(N)c1N=Nc1cccnc1	–	–	–	?	–	–
Cc1cccc(N2CC(C(=O)Nc3nnc(SCc4cccnc4)s3)CC2=O)c1 (stereo not drawn)	–	–	·	45µM	·	·
O=C(Nc1nnc(SCc2ccccn2)s1)C1CC(=O)N(c2ccc(F)cc2)C1 (stereo not drawn)	–	–	·	28µM	·	·
Cc1ccc(CN2CC(C(=O)Nc3nnc(SCc4c(Cl)cccc4Cl)s3)CC2=O)cc1 (stereo not drawn)	–	–	?	10µM	?	–
Cc1ccccc1N1CC(C(=O)Nc2nnc(SCc3ccccn3)s2)CC1=O (stereo not drawn)	–	–	·	?	·	·
COc1cccc(N2CC(C(=O)Nc3nnc(SCc4ccccn4)s3)CC2=O)c1 (stereo not drawn)	–	–	–	7.9µM	?	–

Source: PubChem BioAssay
